For this test, the target named is Human recombinant cathepsin S (Homo sapiens (Human), UniProt P25774). The experiment in a line: In vitro cathepsin Ki inhibition measurements, cathepsin S. The format is biochemical. The settings on record: relative to prior art compound (38). The method, then: Stock solutions of substrate or inhibitor were made up to 10 mM in 100% dimethylsulfoxide (DMSO) (Rathburns, Glasgow, U.K.) and diluted as appropriately required. In all cases the DMSO concentration in the assays was maintained at less than 1% (vol./vol.). The equilibrium inhibition constants (Ki^ss) for each compound were measured under steady-state conditions monitoring enzyme activity as a function of inhibitor concentration. The values were calculated on the assumption of pure competitive behaviour (Cornish-Bowden, A. Fundamentals of enzyme kinetics Portland Press; 1995, 93-128.). […]
The apparent inhibition constant (Ki) for each compound was determined on the basis that inhibition was reversible and occurred by a pure-competitive mechanism. The Ki values were calculated, from the dependence of enzyme activity as a function of inhibitor concentration, by direct regression analysis (Prism v 3.02) using Equation 2 (Cornish-Bowden, A., 1995.).
In situations where the apparent dissociation constant (Ki^app) approached the enzyme concentrations, the Ki^app values were calculated using a quadratic solution in the form described by Equation 3 (Morrison, J. F. Trends Biochem. Sci., 7, 102-105, 1982; Morrison, J. F. Biochim. Biophys. Acta. 185, 269-286, 1969: Stone, S. R. and Hofsteenge, J. Biochemistry, 25, 4622-4628, 1986). […]

Chains of the proteins cited; added tags and fusions are not shown. Residues count along the entry.
UniProt P25774, 115-331: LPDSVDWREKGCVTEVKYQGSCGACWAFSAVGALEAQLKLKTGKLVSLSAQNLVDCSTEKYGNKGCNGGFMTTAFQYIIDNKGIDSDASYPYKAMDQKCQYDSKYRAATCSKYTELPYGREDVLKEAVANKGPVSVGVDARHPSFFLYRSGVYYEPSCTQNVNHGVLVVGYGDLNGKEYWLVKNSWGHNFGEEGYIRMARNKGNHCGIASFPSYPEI

Regarding `O=C(N[C@H](C(=O)N1CC[C@H]2OCC(=O)[C@H]21)C1CCCCC1)c1ccccc1` [Compound 1], the “improvement in in vitro potency against human cathepsin S” value is 2.5 fold.

The record behind these values is patent US8552202B2, “Furo[3, 2-B] pyrrol-3-ones as cathespin S inhibitors” (Amura Therapeutics Limited, priority 2008, dated 2013).
